Assay [1] is filed under the species Homo sapiens. Kind of assay: Selectivity ratio of IC50 for human U937 cells-derived PDE4D to IC50 for human U937 cells-derived PDE4B.
The species named for assay [2] is Homo sapiens. Description: Potency index, ratio of rolipram IC50 to compound IC50 for inhibition of PDE4 in human PBMC assessed as reduction in LPS-stimulated TNFalpha release.

Regarding `COc1ccc(-c2ccc(C(=O)n3nc(C)cc3C)o2)cc1`, the Ratio IC50 in assay [1] worked out at 5.6; in assay [2] it was 1.6.

These data come from ChEMBL document CHEMBL4265881, “Synthesis and bioactivity of 3,5-dimethylpyrazole derivatives as potential PDE4 inhibitors” (Bioorg Med Chem Lett, 2018).
